# scFv variants of Ab-14 (heavy chain) against a SARS-CoV-2 spike peptide

All variants were tested on one target, the spike HR2 peptide PDVDLGDISGINAS (SARS-CoV-2).

Ab-14 is the parent antibody, in scFv form: VH, then the linker GGGGSGGGGSGGGGS, then VL. The light chain is unchanged in all variants.
VH: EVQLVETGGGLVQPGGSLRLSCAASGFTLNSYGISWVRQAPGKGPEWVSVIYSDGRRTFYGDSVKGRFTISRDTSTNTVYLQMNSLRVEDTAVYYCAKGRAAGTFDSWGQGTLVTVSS
VL: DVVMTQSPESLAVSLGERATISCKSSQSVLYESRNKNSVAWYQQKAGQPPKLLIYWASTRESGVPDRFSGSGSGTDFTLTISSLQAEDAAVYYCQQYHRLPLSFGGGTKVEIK

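The parent was found by panning a naive human phage display library on the peptide. These sequences belong to a second round, designed from the earlier measurements on random variants of the parent. Group labels follow the data file (Ctrl: baseline library sampled from a position-specific scoring matrix, with some repeated check sequences; Rand: our label for a block that the file lists under HC and that is probably the random mutants of the ten best first-round binders; GP: Gaussian process model; GPLM: also part of the Gaussian process libraries; HC: hill climbing; Gen: genetic algorithm; Gibbs: Gibbs sampling; a sequence that several methods proposed may carry one label only). In AlphaSeq, yeast of one mating type display the scFv and yeast of the other type display the target. Pairs that bind mate more often; barcode pairs of the diploids are counted by sequencing. Scores were corrected for input abundance and mapped to Kd with protein pairs of known affinity run in the same pool. The assay was run in six technical replicates.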

The parent's heavy chain CDRs are GFTLNSYGIS, VIYSDGRRTFYGDSVK, GRAAGTFDS; each variant's own CDRs replace them letter for letter.
This list holds designs with at most six substitutions.
Affinities are written as log10 Kd with Kd in nM; a lower number is a better binder.
Averages over replicates are reported, and they cover detected replicates only.
"nd" marks a missing value. The strain was present, yet no cells mated with the target were sequenced in any replicate, which points to weak or no binding.
The authors averaged sequences with at least three values out of six and counted those with two or fewer as poor binders.
As a blank, each scFv also met three strains without target: over all heavy chain designs, 1% of these pairings were detected, typically at 2.08 and seldom below 0.84. For each scFv, signals with the empty controls are counted beside the result.
Values of this round are not directly comparable with the first-round values of the same sequences.
The parent sequence was in this pool as ten entries: three were never detected, three once, and four in most replicates, with averages from 0.34 to 2.37.

* GFTLNSYGIS, VMYSDGRRTFYDDSVK, GQLAGTFDS [Rand] = 1.23 (6 of 6 replicates; controls 0 of 18)
* GFTLNSYGIS, VIYSDGRRTFYADSVK, GQLAGTFDT [GP_HC] = 0.39 (6 of 6 replicates; controls 0 of 18)
* GFGLNSYGIS, VIYSDGRRTFYVDSVK, GRNAGTFDS [GP_Gibbs] = 2.12 (5 of 6 replicates; controls 1 of 18)
* GFTINSHGIS, VIYSDGRRTFYIDSVK, GRAAGTFDL [Ctrl] = nd (0 of 6 replicates; controls 0 of 18)
* GFTLESYGIS, VIYSDGRRTFYGDSVK, GRAAGTFSQ [Ctrl] = 2.51 (5 of 6 replicates; controls 0 of 18)
* GFTLNSYGIS, VIYSDGRRTFYTDSVK, GMIAGTFDS [GP_HC] = 0.72 (5 of 6 replicates; controls 0 of 18)
* GFMLNSYGIS, VIYSDGLRTFYIDKVK, GRAKGTFDS [Ctrl] = 1.95 (1 of 6 replicates; controls 0 of 18)
* GFNLNSYGIS, VIYSDGRRTFYADQVK, GNAAGTFDS [GP_Gen] = 0.70 (6 of 6 replicates; controls 0 of 18)
* GFELNSYGIS, VMYSDGRRTAYADSVK, GRAAGTFDS [Ctrl] = 0.24 (6 of 6 replicates; controls 1 of 18)
* GFSLNSYGIS, VIYSDGLRTFYGDSVK, GRAAGTFDS [Ctrl] = 0.58 (3 of 6 replicates; controls 0 of 18)
* GFTLNFYGIS, VIYSDGRRTFYADSVK, GRAAGTFDS [Ctrl] = 2.13 (4 of 6 replicates; controls 0 of 18)
* GFTLNDYGIS, VIYSDGRRMWYIDSVK, GRAAGTFDS [GP_HC] = 1.46 (4 of 6 replicates; controls 0 of 18)
* GFDLNSYGIS, VIYSDGRRTFYADEVK, GNAAGTFDS [GP_Gen] = -0.17 (3 of 6 replicates; controls 0 of 18)
* GFSLNEYGIS, VIYSDGRRTFYKDSVK, GRFAGTFDS [GPLM_HC] = 0.64 (6 of 6 replicates; controls 0 of 18)
* GETLNSYGIS, VIYSDGRRTFYGDEVK, GHAAGTFDS [Ctrl] = nd (0 of 6 replicates; controls 0 of 18)
* GFSLNEYGIS, VIYSDGRRTFYGDSVK, GEAAGTFDK [GPLM_Gen] = -0.34 (6 of 6 replicates; controls 0 of 18)
* GFTLNSYGIS, VIYSDGRRTFYGDSVR, GRAAGAFDS [Ctrl] = nd (0 of 6 replicates; controls 0 of 18)
* GFTLNEYWIS, VIYSDGRRTFYGDSVK, GRAAVTFDQ [Rand] = nd (0 of 6 replicates; controls 0 of 18)
* GFELNSYGIS, VIYSDGRRTFYVDSVK, GKVAGTFDT [GP_Gibbs] = 1.95 (5 of 6 replicates; controls 0 of 18)
* KFSLNSYGIS, VIYADGRRTFYGDSVK, GNAAGTFDS [GP_Gen] = 0.50 (6 of 6 replicates; controls 0 of 18)
* GFTLNSYGIS, VIYSDGRRTFYSDDVK, GNAAGTFDS [GPLM_Gen] = -0.40 (5 of 6 replicates; controls 0 of 18)
* GFTLNSYGIS, VIYSDGRRTFYGDSVK, GRAAGRFDS [Ctrl] = nd (0 of 6 replicates; controls 0 of 18)
* GFDLNSYGIS, VIYSDGRRTFYVDSVK, GTAAGTFDS [GPLM_Gibbs] = -0.25 (6 of 6 replicates; controls 0 of 18)
* GFDLNSYGIS, VIYSDGKRTFYGDSVK, GRQAGTFDT [GP_Gen] = 0.22 (6 of 6 replicates; controls 0 of 18)
* KFSLNSYGIS, VIYSDGRRTFYADSVK, GRTAGTFDT [GP_Gibbs] = -0.13 (6 of 6 replicates; controls 0 of 18)
* GFTLDSYGIS, VIYSDGRRTFYGDSVK, GREAGTFDV [GP_HC] = 0.09 (6 of 6 replicates; controls 0 of 18)
* RFTLNSYGIS, VIYSDGRRTFYGDSVK, GRAAGTSDS [Ctrl] = nd (0 of 6 replicates; controls 0 of 18)
* GFTLLSYGIS, VIYSDGRRTFYGDSVK, GRAAGRFDL [Ctrl] = nd (0 of 6 replicates; controls 1 of 18)
* GFDLNSYGIS, VIYSDGRRTFYVDSVK, GKNAGTFDS [GP_Gen] = 1.69 (6 of 6 replicates; controls 0 of 18)
* GFQLNSYGIS, VIYSDGRRTFYGDQVK, GQTAGTFDS [GP_Gen] = 1.16 (2 of 6 replicates; controls 0 of 18)

5 of these entries, quoted again:

{"CDR-H1": "GETLNSYGIS", "CDR-H2": "VIYSDGRRTFYGDEVK", "CDR-H3": "GHAAGTFDS", "group": "Ctrl", "log10 Kd (nM), mean": "nd", "seen in": "0 of 6", "empty controls": "0 of 18"}
{"CDR-H1": "GFELNSYGIS", "CDR-H2": "VIYSDGRRTFYVDSVK", "CDR-H3": "GKVAGTFDT", "group": "GP_Gibbs", "log10 Kd (nM), mean": "1.95", "seen in": "5 of 6", "empty controls": "0 of 18"}
{"CDR-H1": "KFSLNSYGIS", "CDR-H2": "VIYADGRRTFYGDSVK", "CDR-H3": "GNAAGTFDS", "group": "GP_Gen", "log10 Kd (nM), mean": "0.50", "seen in": "6 of 6", "empty controls": "0 of 18"}
{"CDR-H1": "GFTLNSYGIS", "CDR-H2": "VIYSDGRRTFYGDSVK", "CDR-H3": "GRAAGRFDS", "group": "Ctrl", "log10 Kd (nM), mean": "nd", "seen in": "0 of 6", "empty controls": "0 of 18"}
{"CDR-H1": "GFTLNSYGIS", "CDR-H2": "VMYSDGRRTFYDDSVK", "CDR-H3": "GQLAGTFDS", "group": "Rand", "log10 Kd (nM), mean": "1.23", "seen in": "6 of 6", "empty controls": "0 of 18"}

The measurements come from Li et al. 2023 (doi:10.1038/s41467-023-39022-2) through the FLAb antibody collection.